Entries after “also recorded” stand apart in the source; their conditions may differ.
Key:
[1] = test system: amino acid at a terminal position of a polypeptide; settings: Table 2; amino acid identity at a terminal position (phosphotyrosine also internal); inferred from literature and/or demonstrated by the inventors; cited from earlier work
[2] = molecular target: T1, rat aminopeptidase N (Rat APN) (Rattus norvegicus, UniProt P15684); assay: Terminal amino acid cleavage of peptide-linker conjugates by Rat APN (LCMS); assay type: biochemical; settings: monitored by LCMS
T1 sequence (P15684 1-965): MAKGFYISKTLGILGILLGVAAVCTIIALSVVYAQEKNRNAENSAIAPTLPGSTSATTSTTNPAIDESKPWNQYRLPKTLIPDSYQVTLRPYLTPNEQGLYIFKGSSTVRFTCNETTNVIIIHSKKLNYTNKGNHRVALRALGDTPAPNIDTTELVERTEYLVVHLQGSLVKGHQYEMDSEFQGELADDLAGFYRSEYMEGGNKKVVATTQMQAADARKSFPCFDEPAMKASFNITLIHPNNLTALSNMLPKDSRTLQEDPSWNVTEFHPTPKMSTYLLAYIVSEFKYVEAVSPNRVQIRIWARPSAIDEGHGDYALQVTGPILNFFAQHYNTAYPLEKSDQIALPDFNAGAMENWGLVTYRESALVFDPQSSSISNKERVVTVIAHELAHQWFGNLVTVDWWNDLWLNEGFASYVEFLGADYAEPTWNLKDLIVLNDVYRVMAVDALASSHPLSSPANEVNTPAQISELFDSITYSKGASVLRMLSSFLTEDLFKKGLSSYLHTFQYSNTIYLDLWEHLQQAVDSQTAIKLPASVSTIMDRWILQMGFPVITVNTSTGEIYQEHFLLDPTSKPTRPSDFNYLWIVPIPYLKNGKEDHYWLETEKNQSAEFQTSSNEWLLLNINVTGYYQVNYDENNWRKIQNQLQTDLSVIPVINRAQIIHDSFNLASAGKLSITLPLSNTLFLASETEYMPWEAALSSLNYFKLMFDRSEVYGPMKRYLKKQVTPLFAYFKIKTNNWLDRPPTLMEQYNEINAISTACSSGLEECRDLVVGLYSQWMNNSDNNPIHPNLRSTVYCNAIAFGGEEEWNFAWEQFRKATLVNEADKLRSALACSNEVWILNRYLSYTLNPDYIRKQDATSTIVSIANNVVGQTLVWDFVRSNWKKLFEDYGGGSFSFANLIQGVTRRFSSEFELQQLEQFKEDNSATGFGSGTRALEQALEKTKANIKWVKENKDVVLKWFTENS
Experimental: The peptide-linker conjugates were evaluated for amino acid cleavage at peptide N-termini by N-terminal aminopeptidases (Table 6, below).
The peptide-linker conjugates shown in Table 6 were incubated with either proline iminopeptidase (“PIP”) or rat aminopeptidase N (“Rat APN”), and peptide cleavage was monitored by LCMS. All other cleavage reactions were measured in a similar manner.

Substance	Binding Pref. [1]	Cleaved by Rat APN [2]
H. sapiens p62 protein: SEQ ID NO: 123	K, R, H,; also recorded: W, F, Y	–
1: peptide-linker conjugate: KF (SEQ ID NO. 223), oligo linker (oligo linker) [Entry 1]	–	No

Source: US12065466B2, “Methods and compositions for protein sequencing” (Quantum-Si Incorporated, priority 2020, dated 2024)
